# How the values were obtained:
# IL6R90-G1m/k0 [1] = biological target: T1, IL6R90-G1m/k0 (Homo sapiens (Human), UniProt P01834 1-107); experiment: BLI (Octet HTX), hsIL-6R-BAP1 on streptavidin sensor, molecule as analyte, 30 C
# Experimental: Next, the IL6R binding evaluation of VHH released by protease treatment was conducted using Octet HTX (Pall ForteBio Corp.). Specifically, hsIL-6R-BAP1 was bound to a streptavidin sensor (Pall ForteBio Corp., 18-5021), and each cleaved IgG antibody-like molecule was allowed to act thereon, followed by binding evaluation at 30° C. As a result, the binding was confirmed in IL6R90H1002/VK1-39-k0MT, IL6R90H1004/VK1-39-k0MT, IL6R90H1005/VK1-39-k0MT, and IL6R90H1006/VK1-39-k0MT. IL6R90-G1m/k0 and IL6R90-G1m/lamL divalently bound with avidity, whereas the released VHH bound with affinity. […] Therefore, its response, binding amount, was lower.
# IL6R90-G1m/k0 [2] = biological target: T1, IL6R90-G1m/k0; experiment: BLI (Octet HTX), molecule captured on Protein A biosensor, hsIL-6R as analyte, 30 C
# Experimental: The hsIL-6R binding evaluation of each molecule was conducted using Octet HTX (Pall ForteBio Corp.). Specifically, each molecule was bound to Biosensor/Protein A (ProA) (Pall ForteBio Corp., 18-5013), and hsIL-6R was allowed to act thereon, followed by binding evaluation at 30° C.
binding result (IL6R90-G1m/k0 [1]),binding result (IL6R90-G1m/k0 [2]),Binder
binds,–,"hsIL-6R-BAP1 (receptor, biotin on the C-terminal AviTag sequence (BirA), also called hsIL-6R-Avitag; biotinylated soluble human IL6R) LAPRRCPAQEVARGVLTSLPGDSVTLTCPGVEPEDNATVHWVLRKPAAGSHPSRWAGMGRRLLLRSVQLHDSGNYSCYRAGRPAGTVHLLVDVPPEEPQLSCFRKSPLSNVVCEWGPRSTPSLTTKAVLLVRKFQNSPAEDFQEPCQYSQESQKFSCQLAVPEGDSSFYIVSMCVASSVGSKFSKTQTFQGCGILQPDPPANITVTAVARNPRWLSVTWQDPHSWNSSFYRLRFELRYRAERSKTFTTWMVKDLQHHCVIHDAWSGLRHVVQLRAQEEFGQGEWSEWSPEAMGTPWTESRSPPAENEVSTPMQALTTNKDDDNILFRDSANATSLPVQGGGGSGLNDIFEAQKIEWHE"
–,binds,"soluble human IL-6R (receptor, Expressed in CHO cells and purified from the supernatant; also called hsIL-6R; recombinant human IL6R) LAPRRCPAQEVARGVLTSLPGDSVTLTCPGVEPEDNATVHWVLRKPAAGSHPSRWAGMGRRLLLRSVQLHDSGNYSCYRAGRPAGTVHLLVDVPPEEPQLSCFRKSPLSNVVCEWGPRSTPSLTTKAVLLVRKFQNSPAEDFQEPCQYSQESQKFSCQLAVPEGDSSFYIVSMCVASSVGSKFSKTQTFQGCGILQPDPPANITVTAVARNPRWLSVTWQDPHSWNSSFYRLRFELRYRAERSKTFTTWMVKDLQHHCVIHDAWSGLRHVVQLRAQEEFGQGEWSEWSPEAMGTPWTESRSPPAENEVSTPMQALTTNKDDDNILFRDSANATSLPVQ"
